The numbers were not newly measured in patent US20240228927A1, “MICROFLUIDIC PLATFORM FOR DETECTION OF LIVER INJURY” (Javelin Biotech, Inc., priority 2023, published 2024), which cites them from elsewhere.

This data set concerns liver. The following applies: liver toxicant of Table 1; cited from earlier work.

Each structure is given as a SMILES string.

As for `O=C(O)Cc1ccccc1Nc1c(Cl)cccc1Cl` [Diclofenac], the Mechanism of toxicity result is listed as “Reactive”.
